The values that follow are results of earlier work, collected in patent publication US20160271257A1, “Low Molecular Weight Immune-Modulators As Adjuvants for Specific Immunotherapy” (PLS-DESIGN GMBH, priority 2013, published 2016).

The target of the data set is T1, C5aR (Homo sapiens, UniProt P21730).
T1 construct: endogenous in cells; host or cells: human subjects (cited from Kohl, 2006)
T1 sequence (P21730 1-350): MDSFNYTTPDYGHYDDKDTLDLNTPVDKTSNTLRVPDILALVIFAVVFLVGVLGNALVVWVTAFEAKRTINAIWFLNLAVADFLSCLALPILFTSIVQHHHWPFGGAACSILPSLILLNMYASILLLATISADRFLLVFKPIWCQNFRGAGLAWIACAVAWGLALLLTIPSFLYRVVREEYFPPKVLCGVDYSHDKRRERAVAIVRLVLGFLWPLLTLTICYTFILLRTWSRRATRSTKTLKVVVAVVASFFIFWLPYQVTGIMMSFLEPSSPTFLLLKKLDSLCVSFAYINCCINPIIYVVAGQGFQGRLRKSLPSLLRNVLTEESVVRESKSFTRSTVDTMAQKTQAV
The conditions noted are these: Phase 1.

As for Ac-Phe-[Orn-Pro-DCha-Trp-Arg] [PMX53], the safety and tolerability result was “safe and well tolerated”.
